Measurements taken from patent US10100070B2, “Borate-based base generator, and base-reactive composition comprising such base generator” (FUJIFILM Wako Pure Chemical Corporation, priority 2014, dated 2018).

Test: Solubility tests to organic solvents and a base-reactive compound
Conditions: 0.1 g compound, ethyl lactate added gradually at room temperature, visual

1,3-dimethyl-2-(N,N′,N″,N″-tetramethylguanidino)-4,5-dihydro-3H-imidazolium triphenyl(n-butyl)borate [Comp. Ex. 10]
Solubility in EL: −− (dissolved only into not less than 10 mL thereof)
